Drawing on ChEMBL document CHEMBL1135763, “Discovery of aminothiazole inhibitors of cyclin-dependent kinase 2: synthesis, X-ray crystallographic analysis, and biological activities” (J Med Chem, 2002), this text covers IC50 for one compound.

The test deals with A2780. The test can be described thus: cells. The note with it: Homo sapiens.

As usually defined, the IC50 is the point on the concentration scale where inhibition reaches its midpoint. As for `CC(C)(C)c1cnc(CSc2cnc(NC(=O)Cc3ccc(CNC(CO)CO)cc3)s2)o1`, the IC50 came to 0.03 µM.
